Target: T1, Mouse Plk1 Polo box domain (Plk1-PBD, amino acid residues 367-603) (mouse, UniProt Q07832 367-603)
T1 construct: Polo-like kinase 1 (Plk1), mouse, polo box domain, residues 367-603; TEV site ENLYFQ/S between the His6 tag and the PBD; cleavage between Q and S should leave a Ser before residue 367 (surmised); also called polo box domain of Polo-like kinase 1; source: E. coli BL21 (DE3), purified (Ni-NTA, TEV digestion, Superdex 75 gel filtration); not shown: His6, N-terminal, cleaved
Test: ITC; phosphorylated peptide (1.2 mM) injected into Plk1-PBD (0.1 mM) in the cell; 15 °C; 20 mM Tris-Cl pH 8.0, 300 mM NaCl, 3 mM DTT; one-site binding model
Details: both partners purified

Sequences of proteins named here, by UniProt entry; tags and fusion partners are left off. Residues count along the entry.
UniProt Q07832, 367-603: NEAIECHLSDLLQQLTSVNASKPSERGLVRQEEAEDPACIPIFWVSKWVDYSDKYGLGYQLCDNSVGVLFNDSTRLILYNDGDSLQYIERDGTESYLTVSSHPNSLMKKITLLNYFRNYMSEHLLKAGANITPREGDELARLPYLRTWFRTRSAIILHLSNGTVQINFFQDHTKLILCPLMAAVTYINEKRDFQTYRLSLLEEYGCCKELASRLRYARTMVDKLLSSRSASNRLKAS

- Kd: 1730 nM
B1: Phosphorylated Emi2 146-177 peptide (phospho-Thr152 and phospho-Thr176) (peptide, UniProt Q8CDI2 146-177, looked up)
peptide: SPLVTSTIKTEDVVSNSQNSRLHFSQHKTSTI
modifications: phosphothreonine at 152; phosphothreonine at 176
notes: Made on Rink amide resin, so probably a C-terminal amide (surmised); source: synthetic peptide (Fmoc SPPS, Rink amide resin, RP-HPLC)
